Measured values taken from PubChem BioAssay AID1235 (PCMD, 2008).
Only a part is listed here, and it is no random draw. Calls of active or inactive are those of the source.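 How the source made its calls: active means inhibition above 30% in each of the two pooled mixtures holding the compound, so the lower value exceeds 30%; inactive means the rest.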

Test: alternative complement pathway inhibitors, primary screen, biochemical, ELISA, human serum, orthogonally pooled compounds (AID 1235);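 further: 0% = serum in Mg-EGTA without compound and 100% = EDTA serum blank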
Conditions: LPS-coated ELISA, C3 deposition, tested in compound mixtures, at 5 µM, active compounds read high
How it was run: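 Medium: diluted human serum in Mg2+-EGTA GVB++. Assay system: human serum complement alternative pathway, C3 deposition onto LPS. Also added: Plate-bound LPS. Technique: Anti-C3 ELISA, OD 450 nm. Measure: percent inhibition. Incubation: 1 h at 37 °C. Dosing: 5 µM each compound, pools of ten, 50 µM per pool.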

SMILES | inhibition
N#CC1(Nc2ccccc2)CCN(CCc2ccccc2)CC1 | inactive: 14.8%
COc1ccc(NC2CCN(CCc3ccccc3)CC2)c(OC)c1 | inactive: 10.1%
O=C(OC1CN2CCC1CC2)C1c2ccccc2Oc2ccccc21 (configuration not stated) | inactive: 6.76%
CCC(CO)(C(=O)OC1CN2CCC1CC2)c1ccccc1 (configuration not stated) | inactive: 9.18%
CCOc1ncccc1C(=O)NCC1(N2CCOCC2)CCCCC1 | inactive: 12.3%
Fc1ccccc1NC1CCN(Cc2ccccc2)CC1 | inactive: 5.15%
N/C(=N\O)c1c(N)no[n+]1[O-] | inactive: 11.6%
